Measurements taken from article PMC10872706 (The FEBS journal, 2023).

Test system: E. coli BW25113 wild type
Assay type: cell-based, Escherichia coli

SMILES: Cc1ncc(CO)c(C=O)c1O [PL, pyridoxal]
- effect on bacterial growth (1.4 mM in M9 medium): negative effect
- effect on bacterial growth (2 mM in M9 medium): huge lag
- effect on bacterial growth (2.5 mM in M9 medium): complete arrest of growth

Where two headings read alike, the source gives them in different places.
